Values quoted from earlier work as cited in article PMC2665295.

Target: CaMKII (UniProt Q9UQM7)
Assay: kinetics
Conditions: cited from earlier work

## Calmodulin (from UniProt P0DP29)
  pKd: 7.13

pKd: −log10 of the molar value.
